# Measurements reported in ChEMBL document CHEMBL3297742, “Tetrahydronaphthyridine and dihydronaphthyridinone ethers as positive allosteric modulators of the metabotropic glutamate receptor 5 (mGlu₅)” (J Med Chem, 2014).
# How the values were obtained:
# [1] = system: Rattus norvegicus; assay: Ratio of drug level in brain to plasma in Sprague-Dawley rat at 56.6 mg/kg, po after 1.5 hrs by LC-MS/MS analysis
# [2] = Ratio of drug level in brain to plasma in po dosed Sprague-Dawley rat by LC-MS/MS analysis; type: ADME, organism-based; conditions: brain and plasma, read-out: BPR
# Summary of the method: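 Oral dose of 56.6 mg/kg in 20% HP-β-CD to Sprague–Dawley rats; brain and plasma taken at 1.5 h. Brain homogenized in 70:30 2-propanol:water; samples diluted with acetonitrile containing carbamazepine internal standard; quantified by C18 gradient LC-ESI-MS/MS against a standard curve.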
structure (smiles),measurement,setting,value
O=C1NCCc2nc(OCc3cccc(F)c3)ccc21,BPR,[1],1.67
same,Kp,[2],1.8
